## Cyclic peptide permeability, from CycPeptMPDB

PAMPA is the parallel artificial membrane permeability assay, which has no cells and reads passive diffusion.
Caco-2: transport across a human colon carcinoma cell monolayer.
Values are log10 P with P in cm/s, so -5 is more permeable than -7.
"n/a" marks a cell with nothing listed here.

| structure (SMILES) | PAMPA (log10 cm/s) | Caco-2 (log10 cm/s) |
|---|---|---|
| C[C@@H]1NC(=O)[C@H](C)N(C)C(=O)[C@H](C)N(C)C(=O)[C@H](C)NC(=O)[C@H](C)N(C)C(=O)[C@@H](C)N(C)C1=O | -7.00 | -6.10 |
| C[C@@H]1C(=O)N[C@H](C)C(=O)N(C)[C@@H](C)C(=O)N(C)[C@H](C)C(=O)N[C@H](C)C(=O)N(C)[C@H](C)C(=O)N1C | -7.10 | -5.57 |
| C[C@@H]1NC(=O)[C@H](C)NC(=O)[C@@H](C)N(C)C(=O)[C@H](C)N(C)C(=O)[C@H](C)NC(=O)[C@H](C)NC1=O | -8.30 | -6.82 |
| C[C@@H](O)[C@@H]1NC(=O)[C@H](CCCCN)N(C)C(=O)[C@@H](Cc2c[nH]c3ccccc23)N(C)C(=O)[C@H](Cc2ccccc2)NC(=O)[C@@H]2CCCN2C(=O)[C@H](Cc2ccccc2)N(C)C1=O | n/a | -5.82 |
| C[C@@H]1NC(=O)[C@H](C)NC(=O)[C@@H](C)N(C)C(=O)[C@H](C)NC(=O)[C@H](C)N(C)C(=O)[C@H](C)NC1=O | -8.20 | -6.76 |
| C[C@@H]1C(=O)N(C)[C@@H](C)C(=O)N[C@H](C)C(=O)N[C@H](C)C(=O)N[C@H](C)C(=O)N[C@H](C)C(=O)N1C | -8.20 | -5.62 |
| C[C@H](O)[C@H]1NC(=O)[C@@H](CCCCN)N(C)C(=O)[C@H](Cc2c[nH]c3ccccc23)N(C)C(=O)[C@@H](Cc2ccccc2)NC(=O)[C@H]2CCCN2C(=O)[C@@H](Cc2ccccc2)N(C)C1=O | n/a | -6.14 |
| C[C@@H]1C(=O)N[C@H](C)C(=O)N(C)[C@@H](C)C(=O)N[C@H](C)C(=O)N[C@H](C)C(=O)N[C@H](C)C(=O)N1C | -8.30 | -5.44 |

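The data file gives no further conditions (lipid, pH, time, direction or concentration), and values from different papers need not be comparable. The list need not hold all peptides of the study. Entries at the database's floor value (log10 P of -10) are not listed.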

Source: CycPeptMPDB (Li et al. 2023), which took these values from Marelli et al. 2015, doi:10.1002/chem.201501270.